Literature values in patent US20250064843A1, “METHOD AND MEDICAMENT FOR TREATING AMYOTROPHIC LATERAL SCLEROSIS” (4B TECHNOLOGIES (BEIJING) CO., LIMITED, priority 2021, published 2025).

Test system: ALS patients

In the case of `Nc1nc2ccc(OC(F)(F)F)cc2s1` [riluzole], the extending survival is listed as 2-3 months.
